Results published in PMC6624021.

Tests used:
[1] = biological target: pLAT → Nck condensates (human); assay: TIRF microscopy of rhodamine-actin filaments recruited to supported lipid bilayers; LAT condensates on bilayers without ezrin ABD; fluorescence of recruited actin against the concentration of actin filaments in solution, fitted to a Hill equation (Specific Binding with a Hill slope, GraphPad Prism); effective dissociation constants
[2] = biological target: pLAT → N-WASP condensates (human); assay: as above

Kd [1]: 410 nM
Kd [2]: 280 nM
Substance: actin filaments (from UniProt P68135 1-377) (natural protein)
